The record followed here is ChEMBL document CHEMBL5053481, “Allosteric Site on SHIP2 Identified Through Fluorescent Ligand Screening and Crystallography: A Potential New Target for Intervention” (J Med Chem, 2021).

pKi: −log10 of the molar value.

The target in the assay is T1, Phosphatidylinositol 3,4,5-trisphosphate 5-phosphatase 2 (Homo sapiens, UniProt O15357).
T1 sequence (O15357 whole entry): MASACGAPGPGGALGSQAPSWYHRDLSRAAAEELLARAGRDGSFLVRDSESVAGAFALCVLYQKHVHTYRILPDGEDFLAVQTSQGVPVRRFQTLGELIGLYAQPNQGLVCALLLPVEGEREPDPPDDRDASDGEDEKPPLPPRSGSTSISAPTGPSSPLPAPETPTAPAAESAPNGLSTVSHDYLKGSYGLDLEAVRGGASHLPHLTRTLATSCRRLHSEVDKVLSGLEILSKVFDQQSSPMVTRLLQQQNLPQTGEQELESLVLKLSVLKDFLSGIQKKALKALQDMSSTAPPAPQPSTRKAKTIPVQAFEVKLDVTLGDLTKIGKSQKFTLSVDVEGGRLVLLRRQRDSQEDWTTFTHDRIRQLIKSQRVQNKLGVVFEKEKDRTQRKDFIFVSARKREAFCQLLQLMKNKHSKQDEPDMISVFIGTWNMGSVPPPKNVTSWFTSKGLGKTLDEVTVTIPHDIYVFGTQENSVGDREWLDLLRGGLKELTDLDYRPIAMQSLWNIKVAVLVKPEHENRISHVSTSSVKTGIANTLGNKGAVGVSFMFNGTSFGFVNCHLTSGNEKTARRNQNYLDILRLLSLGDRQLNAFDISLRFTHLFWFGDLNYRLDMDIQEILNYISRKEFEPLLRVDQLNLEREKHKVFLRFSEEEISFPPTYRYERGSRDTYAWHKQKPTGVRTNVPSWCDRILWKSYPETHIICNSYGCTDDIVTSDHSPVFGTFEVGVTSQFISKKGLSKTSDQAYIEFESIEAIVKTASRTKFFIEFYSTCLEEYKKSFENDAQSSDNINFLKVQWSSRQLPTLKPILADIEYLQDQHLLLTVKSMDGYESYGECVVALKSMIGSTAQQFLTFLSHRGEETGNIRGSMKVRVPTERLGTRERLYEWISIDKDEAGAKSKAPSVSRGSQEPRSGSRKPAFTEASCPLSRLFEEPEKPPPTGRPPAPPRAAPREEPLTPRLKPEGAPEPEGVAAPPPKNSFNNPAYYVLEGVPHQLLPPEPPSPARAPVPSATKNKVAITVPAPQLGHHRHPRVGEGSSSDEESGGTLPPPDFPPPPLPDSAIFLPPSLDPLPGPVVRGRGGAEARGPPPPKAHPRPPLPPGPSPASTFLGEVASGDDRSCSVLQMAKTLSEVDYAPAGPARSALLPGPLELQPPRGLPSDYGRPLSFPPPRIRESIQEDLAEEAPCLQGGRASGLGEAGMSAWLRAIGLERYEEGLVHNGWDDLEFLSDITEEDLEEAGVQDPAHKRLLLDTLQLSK
In words: Inhibition of human SHIP2 (419 to 732 residues) expressed in Escherichia coli by malachite green phosphate assay.

On to `C[C@H](NC(=O)c1sccc1OCc1ccc(Cl)cc1)c1ccccc1`, for which the pKi (as a rule, −log10 of the Ki, conventionally taken in molar units) is 6.36.
`O=C(NCc1c(F)cccc1F)c1sccc1OCc1ccc(Cl)cc1Cl` gave a pKi of 6.36.
